Patent publication US20260382730A1, “SOS1 PROTEIN DEGRADATION AGENT AND USE THEREOF” (published 2026)

By UniProt entry, the sequences of proteins in these tests, tags left out. Where a name states a change or a piece, a line headed by the entry shows the natural chain unless it says otherwise.
UniProt Q07889, whole entry: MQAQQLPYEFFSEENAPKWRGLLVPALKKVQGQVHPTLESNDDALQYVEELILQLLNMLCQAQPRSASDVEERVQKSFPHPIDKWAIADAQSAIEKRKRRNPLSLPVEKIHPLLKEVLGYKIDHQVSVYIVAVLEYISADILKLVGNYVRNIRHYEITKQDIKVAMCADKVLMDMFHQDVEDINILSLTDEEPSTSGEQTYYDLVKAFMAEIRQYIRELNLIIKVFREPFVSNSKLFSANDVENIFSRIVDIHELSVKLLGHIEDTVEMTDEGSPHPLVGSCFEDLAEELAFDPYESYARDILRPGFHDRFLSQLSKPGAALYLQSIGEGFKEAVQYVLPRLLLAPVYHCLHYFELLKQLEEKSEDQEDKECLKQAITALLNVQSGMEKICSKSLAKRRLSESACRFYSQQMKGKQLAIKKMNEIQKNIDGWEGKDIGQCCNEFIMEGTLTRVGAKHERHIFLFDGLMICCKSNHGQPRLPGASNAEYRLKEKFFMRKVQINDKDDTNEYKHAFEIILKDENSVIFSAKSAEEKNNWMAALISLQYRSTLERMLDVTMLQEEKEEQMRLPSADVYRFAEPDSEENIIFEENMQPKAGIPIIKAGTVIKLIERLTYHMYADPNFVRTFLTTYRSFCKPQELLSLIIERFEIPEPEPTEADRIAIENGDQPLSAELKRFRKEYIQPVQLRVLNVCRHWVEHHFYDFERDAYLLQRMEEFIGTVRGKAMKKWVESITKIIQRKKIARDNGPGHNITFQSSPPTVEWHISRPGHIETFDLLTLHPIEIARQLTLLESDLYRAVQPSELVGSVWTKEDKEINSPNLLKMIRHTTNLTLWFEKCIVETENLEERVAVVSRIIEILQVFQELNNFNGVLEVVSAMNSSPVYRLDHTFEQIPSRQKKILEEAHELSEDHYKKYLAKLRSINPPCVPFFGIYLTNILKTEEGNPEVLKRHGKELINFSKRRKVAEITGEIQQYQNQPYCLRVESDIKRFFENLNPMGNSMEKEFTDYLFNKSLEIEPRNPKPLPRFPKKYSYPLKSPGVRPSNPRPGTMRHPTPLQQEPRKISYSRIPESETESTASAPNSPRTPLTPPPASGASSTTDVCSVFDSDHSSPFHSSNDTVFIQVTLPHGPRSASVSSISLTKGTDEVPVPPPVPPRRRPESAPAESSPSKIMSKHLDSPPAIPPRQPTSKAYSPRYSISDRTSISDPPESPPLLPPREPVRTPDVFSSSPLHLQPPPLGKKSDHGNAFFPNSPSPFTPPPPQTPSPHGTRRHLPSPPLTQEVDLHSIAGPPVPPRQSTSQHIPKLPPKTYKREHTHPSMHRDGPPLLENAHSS

Assays:
KRAS-G12C/SOS1 = KRAS-G12C/SOS1 (Homo sapiens, UniProt Q07889); assay: KRAS-G12C/SOS1 binding assay (HTRF, competitive inhibition); conditions: read-out: KRAS G12C:SOS1 IC50, 10 μM GTP, 0.5% DMSO, 3 h under ice
Text: Test Example 1: KRAS-G12C/SOS1 Binding Assay
The following method was used to determine the extent of inhibition of a KRAS-G12C/SOS1 binding by the preferred compound of the present invention under in vitro conditions. This method uses the KRAS-G12C/SOS1 Binding Assay Kit (Cisbio, 63ADK000CB16PEG) to determine the competitive inhibition of the KRAS-G12C/SOS1 binding by a homogeneous time-resolved fluorescence technique (HTRF) for the preferred compound.
The experimental procedure was as follows (refer to the package insert of the kit for a detailed method): first the compound in the present invention was dissolved in DMSO at a concentration of 20 mM, and diluted with a buffer in the kit by isogradient dilution so that the final concentration of the test compound in the reaction system ranged from 10000 nM to 0.04 nM, and the final concentration of DMSO was 0.5%. 2 μL of the compound was incubated with 4 μL 1×Tag1-SOS1, 4 μL 1×Tag2-KRAS-G12C (containing 10 μM guanosine triphosphate, GTP) for 15 min at 25 °C, then 5 μL 1×Anti-Tag1-Tb3+ and 5 μL 1×Anti-Tag2-XL665 were added into the reaction system for incubation for 3 h under ice. After the incubation, the fluorescence intensity of each well at an excitation wavelength of 337 nm was measured in an HTRF mode on a microplate reader EnVision (PerkinElmer, 2105) and the fluorescence intensity of each well at emission wavelengths of 620 nm and 665 nm was read. The Raio value was calculated using a Formula Ratio=(665 nm/620 nm)×104. The inhibition rate of the compound at each concentration was calculated by comparing with the fluorescence intensity ratio of the control group, and then the IC50 value of the compound was obtained by nonlinear curve fitting with logarithmic concentration-inhibition rate using GraphPad Prism 8, as shown in Table 1.

SOS1 protein = SOS1 protein (Homo sapiens, UniProt Q07889); assay: SOS1 degradation test (Western blot) in NCI-H358 cells; conditions: maximum SOS1 degradation, NCI-H358 (KRAS G12C) cells, 24 h, 37 °C
Experimental: Test Example 2: SOS1 Degradation Test
The degradation of SOS1 by the compound was investigated on KRAS G12C mutant human non-small cell lung cancer cells NCI-H358 (ATCC or Chinese Academy of Sciences stem cell bank), KRAS G12D mutant human lung cancer cells A-427, KRAS G12V mutant human colorectal adenocarcinoma cells SW-620 and KRAS G13D mutant human colorectal adenocarcinoma epithelial cells DLD-1 (ATCC). Specific methods were as follows:
0.95 mL of cells was paved in each well of the 24-well cell culture plate to make the cell density reach 5×10^5 cells/well; the cell plates were placed in a 5% CO2 incubator and culture at 37 °C overnight. Then 50 μL of a diluted compound solution was added to the corresponding wells paved with cells, so that the final concentration of the compound was in the range of 0.03-3000 nM. The final concentration of DMSO is 0.25%. The administered cell plates were cultured in a 5% CO2 incubator at 37 °C for 24 h. After being removed from the 24 wells, the cell culture solution was washed twice with 1×PBS. 180 μL of an RIPA (strong) lysing buffer (Beyotime, P0013B) was added to NCI-H358 cells attached to the bottom of the cell culture plate and supplemented with 1 mM benzyl sulfonyl fluoride, a protease inhibitor mixture (Beyotime, P1008) and a protease phosphatase inhibitor mixture (Beyont, P1045) for lysis. After standing on ice for 30 min, the protein lysis buffer in each well was transferred to a 1.5 mL centrifuge tube and centrifuged at 15000 g and 4 °C for 20 min. The centrifuged cell lysate supernatant was cryopreserved at −80 °C for testing and used to test the degradation level of the SOS1 protein by a WB method. The total protein concentration in the cell lysis supernatant was determined using a BCA Protein Assay Kit (Tiangen, PA115-02).
The concentration of total protein in the cell lysate was determined by BCA, adjusted to 0.5 μg/μL with PBS and 5×SDS-PAGE protein loading buffer (Beyotime, P0015L), placed in a 100 °C water bath for 15 min, then placed in an ice bath on ice for 5 min, centrifuged at 14000 g and 4 °C for 1 min, mixed well as a loading sample of WB. Protein electrophoresis was performed with a precast gel (Kaigene, KGMG010W15), with a loading volume of 10 μL (total protein 5 μg). Constant voltage electrophoresis was carried out at 120 V for 55 min after Tris-MOPS-SDS electrophoresis solution (Adamas, P1598253). After electrophoresis, the protein on the gel strip was transferred to PVDF membrane at constant current 250 mA for 65 min. After transmembrane transfer, the membrane was incubated at room temperature for 30 min in 1×QuickBlock blocking buffer (Beyotime, P0235). After blocking, the PVDF membranes were incubated with an SOS1 primary antibody (Abcam, ab140621) overnight at 4 °C and washed with TBST buffer (2.4 g Tris, 8.8 g NaCl, 1.5 mL Tween 20, adjusted to pH 7.4, diluted to 1 L) for 30 min (10 min/time). The secondary antibody (Abcam, ab205718) was incubated at room temperature for 2 h, the membrane was washed with TBST buffer for 30 min (10 min/time), and finally incubated with Clarity Western ECL Substrate (BIO-RAD, 170-5061) for 5 min to develop luminescence. Chromogenesis and protein mapping were performed by chemiluminescence imaging system (Qixiang, ChemiScope 6200 Touch). The protein chromatogram was analyzed for gray value by Qinxiang chemiluminescence analysis software. The following formula is used: gray level correction value=(target protein gray level value/corresponding internal reference gray level value)×103 to calculate the gray level correction value of each sample. Then the degradation rate was calculated by comparing with the gray level correction value of the control group. Further, the DC50 and Dmax values of the compound were obtained by non-linear curve fitting with logarithmic concentration versus inhibition ratio through GraphPad Prism 8.

Row | IC50 (KRAS-G12C/SOS1) [nM] | NCI-H358 (G12C) Dmax (SOS1 protein) | SMILES
1 | 15 to 30 | A (80≤Dmax(%)≤100) | Cc1c(C(F)F)cccc1[C@@H](C)Nc1nnc(C)c2cnc(N3CCN(C(=O)[C@H]4CC[C@H](CN5CCC6(CC5)CCN(C(=O)c5ccc(Cl)c(N7CCC(=O)NC7=O)c5)CC6)CC4)CC3)cc12
2 | 50 to 100 | D (Dmax(%)<30) | COc1ccc(C(=O)N2CCC3(CCC(CN4CCN(C(=O)[C@H]5CC[C@H](c6cc7c(N[C@H](C)c8cccc(C#N)c8C)nnc(C)c7cn6)CC5)CC4)CC3)CC2)cc1N1CCC(=O)NC1=O
3 | – | A (80≤Dmax(%)≤100) | Cc1nnc(N[C@H](C)c2cccc3c2CCS3(=O)=O)c2cc(N3CCN(C(=O)C4CCN(CC5CCC6(CC5)CCN(C(=O)c5ccc(Cl)c(N7CCC(=O)NC7=O)c5)CC6)CC4)CC3)ncc12
4 | – | B (50≤Dmax(%)<80) | Cc1c(C#N)cccc1[C@@H](C)Nc1nnc(C)c2cnc(N3CC4CC(C3)N4C(=O)C3CCN(CC4CCC5(CC4)CCN(C(=O)c4ccc(Cl)c(N6CCC(=O)NC6=O)c4)CC5)CC3)cc12
5 | – | A (80≤Dmax(%)≤100) | Cc1c(C#N)cccc1[C@@H](C)Nc1nnc(C)c2cnc(N3CCN(C(=O)C4CCN(CC5CCC6(CC5)CCN(C(=O)c5ccc(Br)c(N7CCC(=O)NC7=O)c5)CC6)CC4)CC3)cc12
6 | – | A (80≤Dmax(%)≤100) | Cc1c(C#N)cccc1[C@@H](C)Nc1nnc(C)c2cnc(N3CCN(C(=O)C4CCN(CC5CCC6(CC5)CCN(C(=O)c5ccc(F)c(N7CCC(=O)NC7=O)c5)CC6)CC4)CC3)cc12
7 | – | D (Dmax(%)<30) | Cc1c(C#N)cccc1[C@@H](C)Nc1nnc(C)c2cnc(N3CC4CC3CN4C(=O)C3CCN(CC4CCC5(CC4)CCN(C(=O)c4ccc(Cl)c(N6CCC(=O)NC6=O)c4)CC5)CC3)cc12 (stereo partly drawn)
8 | – | A (80≤Dmax(%)≤100) | Cc1c([C@@H](C)Nc2nnc(C)c3cnc(N4CCN(C(=O)C5CCN(CC6CCC7(CC6)CCN(C(=O)c6ccc(Cl)c(N8CCC(=O)NC8=O)c6)CC7)CC5)CC4)cc23)cccc1C(F)(F)F
9 | 50 to 100 | B (50≤Dmax(%)<80) | Cc1c(C(F)F)cccc1[C@@H](C)Nc1nnc(C)c2cnc([C@H]3CC[C@H](C(=O)N4CCN(CC5CCC6(CC5)CCN(C(=O)c5ccc(Cl)c(N7CCC(=O)NC7=O)c5)CC6)CC4)CC3)cc12
10 | – | A (80≤Dmax(%)≤100) | CCc1ccc(C(=O)N2CCC3(CCC(CN4CCC(C(=O)N5CCN(c6cc7c(N[C@H](C)c8cccc(C#N)c8C)nnc(C)c7cn6)CC5)CC4)CC3)CC2)cc1N1CCC(=O)NC1=O
11 | – | A (80≤Dmax(%)≤100) | Cc1c(C#N)cccc1[C@@H](C)Nc1nnc(C)c2cnc(N3CC4CCC(C3)N4C(=O)C3CCN(CC4CCC5(CC4)CCN(C(=O)c4ccc(Cl)c(N6CCC(=O)NC6=O)c4)CC5)CC3)cc12
12 | – | A (80≤Dmax(%)≤100) | Cc1c(C#N)cccc1[C@@H](C)Nc1nnc(C)c2cnc(N3CCN(C(=O)C4CCN(CC5CCC6(CC5)CCN(C(=O)c5ccc7c(c5)C(=O)N(C5CCC(=O)NC5=O)C7)CC6)CC4)CC3)cc12 (stereo partly drawn)
13 | – | A (80≤Dmax(%)≤100) | Cc1c(C#N)cccc1[C@@H](C)Nc1nnc(C)c2cnc(N3CCC(C(=O)C4CCN(CC5CCC6(CC5)CCN(C(=O)c5ccc(Cl)c(N7CCC(=O)NC7=O)c5)CC6)CC4)CC3)cc12

More lines, now with the values behind:

Row | SMILES | IC50 (KRAS-G12C/SOS1) [nM] | NCI-H358 (G12C) Dmax (SOS1 protein)
14 | Cc1c(C#N)cccc1[C@@H](C)Nc1nnc(C)c2cnc(N3CCC(C(=O)N4CCC(CCOCC5CCN(C(=O)c6ccc(Cl)c(N7CCC(=O)NC7=O)c6)CC5)CC4)CC3)cc12 | 50 to 100 | B (50≤Dmax(%)<80)
15 | Cc1c(C#N)cccc1[C@@H](C)Nc1nnc(C)c2cnc(C3=CCC(C(=O)N4CCC(CCOCC5CCN(C(=O)c6ccc(Cl)c(N7CCC(=O)NC7=O)c6)CC5)CC4)CC3)cc12 (stereo partly drawn) | 100 to 1000 | D (Dmax(%)<30)
16 | COc1ccc(C(=O)N2CCC3(CCC(CN4CCC(C(=O)N5CCN(c6cc7c(N[C@H](C)c8cc(N)cc(C(F)(F)F)c8)nnc(C)c7cn6)CC5)CC4)CC3)CC2)cc1N1CCC(=O)NC1=O | – | A (80≤Dmax(%)≤100)
17 | Cc1ccc(C(=O)N2CCC3(CCC(CN4CCC(C(=O)C5CCN(c6cc7c(N[C@H](C)c8cccc9c8CCS9(=O)=O)nnc(C)c7cn6)CC5)CC4)CC3)CC2)cc1N1CCC(=O)NC1=O | – | A (80≤Dmax(%)≤100)
18 | Cc1ccc(C(=O)N2CCC3(CCN(CC4CCN(C(=O)N5CCN(c6cc7c(N[C@H](C)c8cccc(C#N)c8C)nnc(C)c7cn6)CC5)CC4)CC3)CC2)cc1N1CCC(=O)NC1=O | 15 to 30 | B (50≤Dmax(%)<80)
19 | Cc1c(C#N)cccc1[C@@H](C)Nc1nnc(C)c2cnc(N3CCN(C(=O)C4CCN(CC5CCC6(CC5)CCN(C(=O)c5ccc7c(c5)C(=O)N(C5CCC(=O)NC5=O)C7=O)CC6)CC4)CC3)cc12 (stereo partly drawn) | < 15 | B (50≤Dmax(%)<80)
20 | Cc1nnc(N[C@H](C)c2cc(-c3c(Cl)cccc3CN(C)C)cs2)c2cc([C@H]3CC[C@H](C(=O)N4CCC(CCOCC5CCN(C(=O)c6ccc(Cl)c(N7CCC(=O)NC7=O)c6)CC5)CC4)CC3)ncc12 | 15 to 30 | A (80≤Dmax(%)≤100)
21 | Cc1c(C#N)cccc1[C@@H](C)Nc1nnc(C)c2cnc(N3CCN(C(=O)C4CCN(CCCC5CCN(C(=O)c6ccc(Cl)c(N7CCC(=O)NC7=O)c6)CC5)CC4)CC3)cc12 | – | C (30≤Dmax (%)<50)
22 | Cc1c(C#N)cccc1[C@@H](C)Nc1nnc(C)c2cnc([C@H]3CC[C@H](C(=O)N4CCC(CCOCC5CCN(C(=O)c6ccc(Cl)c(N7CCC(=O)NC7=O)c6)CC5)CC4)CC3)cc12 | 100 to 1000 | C (30≤Dmax (%)<50)
23 | Cc1c(C#N)cccc1[C@@H](C)Nc1nnc(C)c2cnc(N3CCN(C(=O)C4CCN(CCCCN5CCN(C(=O)c6ccc(Cl)c(N7CCC(=O)NC7=O)c6)CC5)CC4)CC3)cc12 | < 15 | C (30≤Dmax (%)<50)
24 | Cc1c(C#N)cccc1[C@@H](C)Nc1nnc(C)c2cnc(N3CCC(C(=O)C4CCN(CCCCC5CCN(C(=O)c6ccc(Cl)c(N7CCC(=O)NC7=O)c6)CC5)CC4)CC3)cc12 | – | B (50≤Dmax(%)<80)
25 | Cc1ccc(C(=O)N2CCC3(CCC(CN4CCC(C(=O)N5CCN(c6cc7c(N[C@H](C)c8cccc9c8CCS9(=O)=O)nnc(C)c7cn6)CC5)CC4)CC3)CC2)cc1N1CCC(=O)NC1=O | – | A (80≤Dmax(%)≤100)
26 | Cc1c(C#N)cccc1[C@@H](C)Nc1nnc(C)c2cnc(N3CCN(C(=O)N4CCC(CCOCC5CCN(C(=O)c6ccc(Cl)c(N7CCC(=O)NC7=O)c6)CC5)CC4)CC3)cc12 | – | A (80≤Dmax(%)≤100)
